Source: ChEMBL document CHEMBL4130633, “Exploration of Benzothiazole Rhodacyanines as Allosteric Inhibitors of Protein-Protein Interactions with Heat Shock Protein 70 (Hsp70)” (J Med Chem, 2018)

How the values were obtained:
[1] = Selectivity index, ratio of IC50 for human IMR90 cells to IC50 for human MCF7 cells; type: toxicity; conditions: IMR90 cells versus MCF7 cells, read-out: Ratio IC50
[2] = Selectivity index, ratio of IC50 for MEF cells to IC50 for human MCF7 cells; type: toxicity; conditions: mouse (MEF cells), MEF cells versus MCF7 cells, read-out: Ratio IC50

Question: Which results are given for CCn1c(=O)/c(=C2\Sc3cc(Br)ccc3N2C)s/c1=C\c1scc[n+]1Cc1ccc(C(F)(F)F)o1.[Cl-]?
Answer: selectivity ratio [1]: 98; selectivity ratio [2]: 35

Question: Which selectivity ratio [1] does the source give for CCn1c(=O)/c(=C2\Sc3cc(C)ccc3N2C)s/c1=C\c1scc[n+]1Cc1ccccc1.[Cl-] here?
Answer: 11

Question: And the selectivity ratio [2]?
Answer: 11

Question: What does the source list for CCc1ccc2c(c1)S/C(=c1/s/c(=C\c3scc[n+]3Cc3ccccc3C(=O)OC)n(CC)c1=O)N2C.[Cl-]?
Answer: selectivity ratio [1]: 65; selectivity ratio [2]: 20
